This experiment concerns the target rabbit actin (rabbit, UniProt P68135 3-377). The experiment is described as follows: direct ELISA, antigen coated at 5 µg/ml.

B1: mAb A2B5 (antibody, mouse IgM, V domains shown)
VH: EVKLVESGGGLVQPGGSLRLSCATSGFTFSDFYMEWVRQPPGKRLEWIAASRNKANDYTTEYSASVKGRFIVSRDTSQSILYLQMNALRAEDTAIYYCARDARQLGLPAWFAYWGQGTLVTVSA
VL: QIVLTQSPAIMSASPGEKVTISCSASSSVSYMYWYQQKPGSSPKPWIYRTSNLASGVPARFSGSGSGTSYSLTISSMEAEDAATYYCQQYHSYPLTFGAGTKLELKR
notes: Mouse IgM kappa
As for B1, the binding result was “no binding (tested: mAbs at 2 µg/ml)”.

These data come from patent US20180086821A1 (MAYO FOUNDATION FOR MEDICAL EDUCATION AND RESEARCH, published 2018).
